## Apparent affinities of Ab-91 variants for a coronavirus HR2 peptide

Source: Engelhart et al. 2022 (doi:10.1038/s41597-022-01779-4), MIT Lincoln Laboratory and A-Alpha Bio; data file from the FLAb repository.

Antigen: PDVDLGDISGINAS, a 14-residue peptide of the SARS-CoV-2 spike HR2 region.

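Phage display of a naive human antibody library on the peptide gave the parent. The library (AAYL51) carries one to three amino acid substitutions per variant, with no insertions or deletions. AlphaSeq pools MATa yeast showing the antibodies with MATalpha yeast showing the peptide. Binding brings cells together so that they mate, and sequencing counts the barcode pairs among the diploids. A regression on co-assayed BCL2-family reference pairs converts the normalised counts of each replicate to an apparent Kd. The assay was run in three technical replicates.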

Parent scFv Ab-91: VL joined to VH by a 15-residue (Gly4Ser)3 linker. Changes lie in the heavy chain CDRs alone.
VL: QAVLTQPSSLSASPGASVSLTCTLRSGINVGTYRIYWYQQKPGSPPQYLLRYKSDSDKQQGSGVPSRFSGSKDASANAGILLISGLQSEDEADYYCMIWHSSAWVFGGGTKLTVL
VH: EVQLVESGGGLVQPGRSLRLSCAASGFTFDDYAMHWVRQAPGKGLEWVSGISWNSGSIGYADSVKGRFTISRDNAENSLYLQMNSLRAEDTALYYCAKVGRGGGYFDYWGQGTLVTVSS

Positions count from residue 1 of the parent VH; D30A puts A in place of D. Every variant below is changed at D31 of the VH (sequential numbering). Numbers give log10(Kd / nM), so 0 is 1 nM and 3 is 1 µM. Smaller is tighter. The mean shown is taken over the replicates in which the pair was detected. An entry "nd" has no value in the source: the pair was not observed among the diploids in any replicate. This suggests poor binding but is not conclusive. As a blank, each scFv also met three strains without target: over library AAYL51, 21% of these pairings were detected, typically at 4.54 and seldom below 3.26.

Variant D30A+D31G+Y60K gave nd (0 of 3 replicates).
Variant D31Q+Y60F+G100A gave 4.46 (2 of 3 replicates).
Variant D31F+H35Y+K65Y gave nd (0 of 3 replicates).
Variant D31W+Y108Q gave 1.60 (3 of 3 replicates).
Variant G26P+D31W+H35C gave 3.96 (1 of 3 replicates).
Variant D31N+N54W+G103C gave nd (0 of 3 replicates).
Variant D31N+G59R+Y60K gave nd (0 of 3 replicates).
Variant T28A+D31P+V99K gave nd (0 of 3 replicates).
Variant D31V+H35Y+F106M gave nd (0 of 3 replicates).
Variant D30H+D31T+K65N gave 0.97 (3 of 3 replicates).
Variant D31S+D62K+Y105H gave nd (0 of 3 replicates).
Variant D31K+I58M+S63K gave 0.48 (3 of 3 replicates).
Variant D31H+S55W+S63A gave nd (0 of 3 replicates).
Variant D31K+Y105W gave 1.76 (3 of 3 replicates).
Variant D31Q+V64G+G100I gave nd (0 of 3 replicates).
Variant D31K+Y32N+S55M gave 3.87 (3 of 3 replicates).
Variant D31F+Y60C gave nd (0 of 3 replicates).
Variant D31V+A33Q gave 5.55 (1 of 3 replicates).
Variant F29A+D31H+I58Y gave nd (0 of 3 replicates).
Variant G26F+D31I gave nd (0 of 3 replicates).
Variant D31A+K65Q gave 1.03 (3 of 3 replicates).
Variant D31K+A33N+D107E gave nd (0 of 3 replicates).
Variant D31A+N54G+G104R gave 2.18 (3 of 3 replicates).
Variant D31P+G50C+N54W gave nd (0 of 3 replicates).
Variant F27W+D31L+D62P gave 4.94 (2 of 3 replicates).
Variant D31G+G100H+G102A gave nd (0 of 3 replicates).
Variant F29S+D31F+G50N gave 3.22 (1 of 3 replicates).
Variant D31A+V64F gave 1.38 (3 of 3 replicates).
Variant D31K+I58C+G102M gave 2.93 (3 of 3 replicates).
Variant D31G+G50N gave nd (0 of 3 replicates).
Variant D31L gave 0.24 (3 of 3 replicates).
Variant D31G+H35K+S52R gave 4.56 (1 of 3 replicates).
Variant D31N+G102L+Y105C gave 2.85 (1 of 3 replicates).
Variant F27Q+D31N+S63H gave 5.12 (3 of 3 replicates).
Variant D31E+S63Q+Y108C gave 0.61 (3 of 3 replicates).
Variant T28C+D31C+F106S gave 0.95 (3 of 3 replicates).
Variant D31E+G50V+G103N gave nd (0 of 3 replicates).
Variant D30E+D31S+H35Q gave nd (0 of 3 replicates).
Variant F29P+D31Y+A33F gave 5.40 (3 of 3 replicates).
Variant D31I+N54M+G59Y gave nd (0 of 3 replicates).

Top 5 of the variants detected in all replicates, tightest first:

changes,"log10 Kd (nM), mean",detected
D31L,0.24,3 of 3
D31K+I58M+S63K,0.48,3 of 3
D31E+S63Q+Y108C,0.61,3 of 3
T28C+D31C+F106S,0.95,3 of 3
D30H+D31T+K65N,0.97,3 of 3